SMILES strings stand for the structures. Counter-ions that a name gives are not always drawn.

The values below come from patent US4397860A, “Benzodioxanyl imidazoline compounds, compositions and use” (Reckitt & Colman Products Limited, priority 1981, dated 1983).

Experiment [1] deals with T1, pre-synaptic α2-adrenoreceptor (Mus musculus, UniProt Q01338).
T1 construct: The mouse vas deferens was stimulated at low frequency (0.1 Hz); from tissue; host or cells: mouse vas deferens
T1 sequence (Q01338 1-465): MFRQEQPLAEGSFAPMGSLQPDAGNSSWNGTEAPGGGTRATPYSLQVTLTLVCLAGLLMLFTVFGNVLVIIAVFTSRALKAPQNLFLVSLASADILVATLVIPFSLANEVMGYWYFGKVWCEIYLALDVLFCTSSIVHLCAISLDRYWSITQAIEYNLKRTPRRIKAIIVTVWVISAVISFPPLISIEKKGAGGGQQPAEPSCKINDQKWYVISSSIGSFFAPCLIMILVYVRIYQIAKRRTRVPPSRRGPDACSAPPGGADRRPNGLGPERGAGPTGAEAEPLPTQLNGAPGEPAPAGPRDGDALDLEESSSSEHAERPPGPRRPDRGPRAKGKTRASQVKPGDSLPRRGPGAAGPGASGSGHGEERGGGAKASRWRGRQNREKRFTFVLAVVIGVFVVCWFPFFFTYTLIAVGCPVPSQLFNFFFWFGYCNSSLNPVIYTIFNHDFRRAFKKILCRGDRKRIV
Briefly: Pre-synaptic α2-adrenoreceptor antagonist activity, mouse vas deferens (reversal of clonidine inhibition).

In experiment [2] the target is T2, presynaptic α2-adrenoreceptor (Rattus norvegicus, UniProt P22909).
T2 sequence (P22909 1-465): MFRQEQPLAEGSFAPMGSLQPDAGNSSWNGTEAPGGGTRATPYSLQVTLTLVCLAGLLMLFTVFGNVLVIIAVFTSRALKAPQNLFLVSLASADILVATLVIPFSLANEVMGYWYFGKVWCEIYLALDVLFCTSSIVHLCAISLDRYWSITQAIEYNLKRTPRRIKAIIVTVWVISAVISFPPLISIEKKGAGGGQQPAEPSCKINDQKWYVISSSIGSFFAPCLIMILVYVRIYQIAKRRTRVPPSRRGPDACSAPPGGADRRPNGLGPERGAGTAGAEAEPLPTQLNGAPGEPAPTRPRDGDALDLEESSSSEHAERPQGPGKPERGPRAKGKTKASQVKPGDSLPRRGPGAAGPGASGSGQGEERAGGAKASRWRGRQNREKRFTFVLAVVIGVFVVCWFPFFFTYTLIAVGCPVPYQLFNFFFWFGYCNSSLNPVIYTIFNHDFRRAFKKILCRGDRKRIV
Conditions: Table 1, of the compounds studied.

The target in experiment [3] is T2, presynaptic α2-adrenoreceptor.
Experiment [4] has the same target. Briefly: Presynaptic α2-adrenoreceptor antagonism in the pithed rat (reversal of clonidine block on vas deferens, i.v.). In kind it is in vivo.

With `CN1CCN=C1C1COc2ccccc2O1` (stereo not drawn) [3^1 -methyl], the “α2 potency: Antagonism” value in experiment [1] turned out to be 0.003.
For the compound `CC1(C2=NCCN2)COc2ccccc2O1` (stereo not drawn) [Example 1, 2-[2-(2-Methyl-1,4-benzodioxanyl)]-2-imidazoline hydrochloride], in experiment [2], the “presynaptic α2-adrenoreceptor antagonist potency (in words)” value was “the most potent presynaptic α2 -adrenoreceptor antagonist” and the “selectivity for presynaptic sites (in words)” value is reported as “the most selective for presynaptic sites”. This compound gave a Kb in experiment [3] of 2.51 nM. Besides, the “presynaptic α2-adrenoreceptor antagonist potency in the pithed rat (in words)” value in experiment [4] (Table 2, of those studied) was “clearly the most potent presynaptic α2 -adrenoreceptor antagonist”. Also, in experiment [4] (iv, pithed rat, i.v. cumulative dosing, clonidine 100 μg/kg i.v., mean of minimum 4 rats, read-out: i.v. dose of antagonist causing 50% reversal of clonidine block on vas deferens), the ED50 is 0.04 mg/kg.
